Assay results: PubChem BioAssay (NCATS)
This is a selection; strong and weak results do not stand in their true shares. Inconclusive results are not listed. For some assays here: Entries with a potency or affinity are not part of this list. Activity calls are given as the source filed them. Unless noted, calls follow the shape of the dose curve; as a rule, active = well fitted curve in the direction sought with a large enough effect; inconclusive = small, poorly fitted or top-dose-only effect, or another doubt; inactive = no such curve, though single readings can be large; an effect the other way counts as inactive or inconclusive.

How the values were obtained:
[1] = NFAT Signaling Pathway (AID 444; active = well fitted curve in either direction with a large enough effect, not every such curve was filed as active;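 also: carbachol stimulus at about its EC50 of 1 µM final; % is scaled to controls: 0 for no effect and ±100 for the full control effect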); details: Jurkat NFAT-bla M1, carbachol, beta-lactamase ratio, 5 h; at 7.69 µM (top of the series) unless noted
[2] = biological target: 3',5'-cyclic-AMP phosphodiesterase 4B (Homo sapiens) (UniProt Q07343); test: qHTS Assay for Inhibitors of PDE-IV (AID 607; active = well fitted activation curve with a large enough effect in the main read-out, with a control signal flat, not every such curve was filed as active; also: % of control where 0% means no effect); details: HEK293 ACTOne CNG channel cells, membrane potential fluorescence; at 22.9 µM (top of the series)
Method in brief: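 HEK293 ACTOne cells with CNG channel (1000/well), endogenous PDE4; membrane potential dye, compounds up to 22.9 uM final. Fluorescence Ex 535/Em 590; RO 20-1724 (100 uM final) as reference.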

[3] = biological target: Estrogen receptor (Homo sapiens) (UniProt P03372); test: qHTS assay for small molecule antagonists of estrogen receptor alpha signaling (AID 588513; active = well fitted curve in the direction sought with a large enough effect in the signal ratio, with a control signal flat, not every such curve was filed as active; the % refers to the signal ratio; also: % is scaled to controls: 0 for no effect and ±100 for the full control effect); details: ER-alpha-UAS-bla HEK293, beta-lactamase ratio, antagonist mode; at 76.9 µM (top of the series)
[4] = biological target: Bile acid receptor (Homo sapiens) (UniProt Q96RI1); test: qHTS assay for small molecule antagonists of farnesoid X receptor signaling (AID 588526; calls by dose curve; also: % is scaled to controls: 0 for no effect and ±100 for the full control effect); details: HEK293T FXR-UAS-bla, beta-lactamase ratio, antagonist mode; at 76.7 µM (top of the series)
[5] = biological target: Bile acid receptor (Homo sapiens) (UniProt Q96RI1); test: qHTS assay for small molecule agonists of farnesoid X receptor signaling (AID 588527; calls by dose curve;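 also: 0% = vehicle basal and 100% = reference agonist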); details: HEK293T FXR-UAS-bla, beta-lactamase ratio, 16 h; hits give high values
[6] = biological target: Glucocorticoid receptor (Homo sapiens) (UniProt P04150); test: qHTS assay for small molecule agonists of glucocorticoid receptor signaling (AID 588532; active = well fitted curve in the direction sought with a large enough effect in the signal ratio, with a control signal flat; the % refers to the signal ratio;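 also: 100% = dexamethasone at 0.1 µM and 0% = DMSO only wells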); details: HeLa MMTV-bla, beta-lactamase ratio, agonist, 18 h; hits give high values
[7] = biological target: Glucocorticoid receptor (Homo sapiens) (UniProt P04150); test: qHTS assay for small molecule antagonists of glucocorticoid receptor signaling (AID 588533; active = well fitted inhibition curve with a large enough effect in the signal ratio, with a control signal flat, not every such curve was filed as active; the % refers to the signal ratio;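 also: cells stimulated with 2 nM dexamethasone as agonist; % is scaled to controls: 0 for no effect and ±100 for the full control effect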); details: HeLa MMTV-bla, GRE beta-lactamase ratio, antagonist mode, 18 h; at 76.8 µM (top of the series)
[8] = biological target: Peroxisome proliferator-activated receptor delta (Homo sapiens) (UniProt Q03181); test: qHTS assay for small molecule agonists of peroxisome proliferator-activated receptor delta signaling (AID 588534; calls by dose curve;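 also: 0% = DMSO basal wells and 100% = positive control agonist at 10 µM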); details: HEK293T PPARdelta-UAS-bla, beta-lactamase ratio, 18 h; at 76.7 µM (top of the series)
[9] = biological target: Peroxisome proliferator-activated receptor delta (Homo sapiens) (UniProt Q03181); test: qHTS assay for small molecule antagonists of peroxisome proliferator-activated receptor delta signaling (AID 588535; active = well fitted inhibition curve with a large enough effect in the signal ratio, with a control signal flat, not every such curve was filed as active; the % refers to the signal ratio); details: HEK293T PPARd-UAS-bla, beta-lactamase FRET ratio, 18 h; at 76.7 µM (top of the series)
[10] = biological target: Peroxisome proliferator-activated receptor gamma (Homo sapiens) (UniProt P37231); test: qHTS assay for small molecule agonists of peroxisome proliferator-activated receptor gamma signaling (AID 588536; active = well fitted curve in the direction sought with a large enough effect in the signal ratio, with a control signal flat, not every such curve was filed as active; the % refers to the signal ratio;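 also: 0% = DMSO basal wells and 100% = rosiglitazone at 2 µM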); details: HEK293 PPARg-UAS-bla, beta-lactamase ratio, 16 h, percent of rosiglitazone response, DMSO as zero; at 76.7 µM (top of the series)
[11] = biological target: Peroxisome proliferator-activated receptor gamma (Homo sapiens) (UniProt P37231); test: qHTS assay for small molecule antagonists of peroxisome proliferator-activated receptor gamma signaling (AID 588537; active = well fitted inhibition curve with a large enough effect in the signal ratio, with a control signal flat, not every such curve was filed as active; the % refers to the signal ratio;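 also: reporter cells co-stimulated with 50 nM rosiglitazone agonist during compound treatment; % of control where 0% means no effect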); details: HEK293 PPARg-UAS-bla, beta-lactamase ratio, antagonist mode; at 76.8 µM (top of the series)
Method in brief: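 Antagonist-mode β-lactamase reporter screen run as a titration series. HEK293 PPARγ-UAS-bla cells are stimulated with rosiglitazone (50 nM final) for 16 h, then CCF4 is read at 460/530 nm. Data are scaled between DMSO and rosiglitazone and fitted to the Hill equation.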

[12] = biological target: Vitamin D3 receptor (Homo sapiens) (UniProt P11473); test: qHTS assay for small molecule antagonists of vitamin D receptor signaling (AID 588541; calls by dose curve); details: HEK293T VDR-UAS-bla, beta-lactamase ratio, antagonist mode; at 76.7 µM (top of the series)
Method in brief: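 Antagonist-mode beta-lactamase reporter assay: HEK293T VDR-UAS-bla cells were exposed to titrated compound alongside 1-alpha,25-dihydroxyvitamin D3 at 3 nM final for 16 h. Values were normalized to the 50 nM agonist control and DMSO basal, with IC50 and efficacy from Hill equation fits.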

[13] = biological target: Vitamin D3 receptor (Homo sapiens) (UniProt P11473); test: qHTS assay for small molecule agonists of vitamin D receptor signaling (AID 588543; calls by dose curve;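 also: 0% = DMSO basal and 100% = reference agonist control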); details: HEK293T VDR-UAS-bla, beta-lactamase ratio, 16 h; at 76.8 µM (top of the series)
Method in brief: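 qHTS in agonist mode: compound titrations stimulate a VDR-driven β-lactamase reporter in HEK293T cells over 16 h at 37 °C. Response normalized to 50 nM 1α,25-dihydroxyvitamin D3 = 100%, DMSO = 0%; Hill fitting gives EC50 and maximal response.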

[14] = biological target: Retinoic acid receptor RXR-alpha (Homo sapiens) (UniProt P19793); test: qHTS assay for small molecule antagonists of retinoid X receptor alpha signaling (AID 588546; active = well fitted inhibition curve with a large enough effect in the signal ratio, with a control signal flat, not every such curve was filed as active; the % refers to the signal ratio); details: HEK293T RXRa-UAS-bla, beta-lactamase ratio, antagonist mode
Method in brief: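 Beta-lactamase reporter inhibition, read as CCF4 fluorescence ratio (ex 405, em 460/530 nm) after 2 h at RT. HEK293T UAS-bla cells, 2500/well, were stimulated with 9-cis-RA at 500 or 100 nM final alongside test compound for 18 h at 37 C.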

[15] = biological target: Thyroid hormone receptor beta (Homo sapiens) (UniProt P10828); test: qHTS assay for small molecule antagonists of thyroid hormone receptor beta signaling (AID 588547; active = well fitted inhibition curve with a large enough effect in the signal ratio, with a control signal flat, not every such curve was filed as active; the % refers to the signal ratio); details: TR-UAS-bla HEK293, beta-lactamase ratio, antagonist mode, 18 h; hits give low values
Method in brief: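 Inhibition of T3-driven (0.4nM final) beta-lactamase reporter activity was measured over 0.59 nM to 92 uM compound after 18 h at 37 C. The cells were GripTite HEK293 TR-UAS-bla in charcoal/dextran-stripped serum, with CCF4 ratio read-out and IC50 from Hill fits.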

[16] = qHTS assay for small molecule activators of the p53 signaling pathway (AID 651743; active = well fitted activation curve with a large enough effect in the signal ratio, not every such curve was filed as active; the % refers to the signal ratio; also: % of control where 0% means no effect); details: HCT-116 p53RE-bla, beta-lactamase FRET ratio, 16 h; activation: hits give high values
[17] = qHTS assay for small molecule activators of the nuclear factor-kappa B (NF-kB) signaling pathway (AID 651749; active = well fitted activation curve with a large enough effect in the signal ratio; the % refers to the signal ratio; also: % of control where 0% means no effect); details: NF-kB-bla ME-180 cells, beta-lactamase FRET ratio, 16 h; hits give high values
Method in brief: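 Activation measured after 16 hr compound treatment at 37C, 5% CO2, of 2,000 ME-180 cells/well stably expressing an NF-kB response element–driven beta-lactamase reporter, via FRET-disruption fluorescence.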

[18] = qHTS assay for environmental chemicals that activate the Aryl hydrocarbon Receptor (AhR) signaling pathway (AID 651777); details: 1A2-DRE human hepatoma cells, luciferase, 24 h; hits give high values; also: % of control where 0% means no effect; nearly all actives have a fitted effect of over 15% in size
Method in brief: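 Reporter gene assay: hepatoma cells with DRE/CYP1A2-luciferase, 24 hr compound incubation at 37 C, 5% CO2, luminescence after One-Glo (30 min, RT).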

[19] = biological target: Peroxisome proliferator-activated receptor alpha (Homo sapiens) (UniProt Q07869); test: qHTS assay for small molecule agonists of the peroxisome proliferator-activated receptor alpha (PPARalpha) signaling pathway (AID 651778); details: PathHunter PPARalpha complementation, chemiluminescence, 6 h; hits give high values; also: % of control where 0% means no effect
[20] = qHTS assay for small molecule agonists of the antioxidant response element (ARE) signaling pathway measured by Nrf2-dependant transcriptional activity (AID 720636; active = well fitted curve in the direction sought with a large enough effect in the repeat runs; an effect the other way counts as inactive or inconclusive;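 also: HepG2 cells with an ARE-driven luciferase reporter; % of control where 0% means no effect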); details: ARE-luc HepG2, Nrf2 luciferase reporter, 16 h; at 92.4 µM (top of the series)
[21] = qHTS assay for small molecule agonists of the antioxidant response element (ARE) signaling pathway measured by Nrf2-dependant transcriptional activity - cell viability counter screen (AID 720653; active = well fitted curve in the direction sought with a large enough effect in the repeat runs; an effect the other way counts as inactive or inconclusive; also: % is scaled to controls: 0 for no effect and ±100 for the full control effect); details: ARE-bla HepG2 viability, CellTiter-Glo ATP luminescence, 16 h; hits give low values
Method in brief: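 Cytotoxicity counter screen: intracellular ATP quantified by CellTiter-Glo luminescence in the same ARE-bla HepG2 plates, after 16 h compound exposure and a 2 h beta-lactamase substrate step.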

[22] = qHTS assay for cell viability of HEK293 cells (AID 743288); details: ATP luminescence (CellTiter-Glo), 18 h; max response: hits give low values; also: % is scaled to controls: 0 for no effect and ±100 for the full control effect; nearly all actives have a fitted effect of over 50% in size
Method in brief: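 Quantitative high-throughput screen: compounds were pinned onto parental HEK293 cells (2,000 per well) after a minimum 5 h settling at 37 C, incubated 18 h at 37 C, and intracellular ATP measured by luciferase luminescence.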

[23] = qHTS assay for cell viability of the p53RE-bla HCT-116 cell line (AID 743292); also: % is scaled to controls: 0 for no effect and ±100 for the full control effect; nearly all actives have a fitted effect of over 55% in size
Method in brief: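 ATP-based luminescence, 16 h compound exposure at 37 C, p53RE-bla HCT-116 cells at 4,000/well.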

[24] = biological target: Nuclear receptor subfamily 1 group I member 2 (Rattus norvegicus) (UniProt Q9R1A7); test: qHTS assay for small molecule activators of the rat pregnane X receptor (rPXR) signaling pathway (AID 651751; call rule not given here; also: 0% is about no effect); details: rPXR reporter cells, luciferase (One-Glo), 24 h
[25] = qHTS assay for small molecule activators of the human pregnane X receptor (PXR) signaling pathway (AID 720659; call rule not given here; also: 0% is about no effect); details: DPX-2 HepG2 CYP3A4-luciferase, 24 h; at 92.3 µM (top of the series)
[26] = biological target: Guanine nucleotide-binding protein G(i) subunit alpha-1 (Homo sapiens) (UniProt P63096); test: qHTS Assay for Inhibitors of RGS12 GoLoco Motif Activity (Green Fluorophore) (AID 879); details: Galphai1/FITC-RGS12 GoLoco peptide, fluorescence polarization; at 57.1 µM (top of the series);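 also: 0% = labeled peptide with Gαi1 and full inhibition = labeled peptide alone without protein; negative values mean loss of peptide binding seen as reduced polarization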
Method in brief: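 A drop in FITC polarization marked displacement of the FITC-tagged RGS12 GoLoco peptide (10 nM) from Gαi1 (50 nM). Compounds were incubated 10 min at room temperature in Tris pH 7.5 buffer containing 150 mM NaCl, 0.1 mM GDP and 0.05% NP40; unlabeled peptide titration served as control.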

[27] = qHTS Assay for Identification of Small Molecule Agonists for Thrombopoietin (TPO) Signaling Pathway (AID 917); details: TPO signaling pathway reporter cells, agonist qHTS, stimulated with TPO at its EC50; at 38.5 µM (top of the series); also: % is scaled to controls: 0 for no effect and ±100 for the full control effect
[28] = biological target: Muscarinic acetylcholine receptor M1 (Rattus norvegicus) (UniProt P08482); test: qHTS Assay for Antagonists of Acetylcholine Muscarinic M1 Receptor: Measurement of IP-One Response (AID 944); also: nearly all actives have a fitted effect of over 75% in size
[29] = biological target: Pyruvate kinase PKM (Homo sapiens) (UniProt P14618); test: qHTS Assay for Activators of Human Muscle Pyruvate Kinase (AID 954; active = well fitted curve in the direction sought with a large enough effect, not every such curve was filed as active;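 also: 0% = uninhibited enzyme and -100% = no enzyme or full thiadiazolimine inhibition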); details: purified human PKM1 enzyme activity; at 57.5 µM (top of the series)
Method in brief: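 Compound pinned into substrate mix (0.5 mM PEP, 0.1 mM ADP), then 0.1 nM PKM2 added; 1 h, RT. Stop/detection luciferase reagent added, luminescence read. Normalized to no-inhibition and no-enzyme or reference-inhibitor controls.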

[30] = biological target: Alpha-galactosidase A (Homo sapiens) (UniProt P06280); test: Counterscreen for Glucocerebrosidase Inhibitors: qHTS Assay for Human alpha-Galactosidase at pH 4.5 (AID 992); details: purified enzyme, fluorogenic substrate; at 76.9 µM (top of the series); also: 0% is about no effect
Method in brief: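 Steps: enzyme (2 nM final), then compound across 0.7 nM to 77 uM, then 80 uM fluorogenic galactopyranoside substrate; incubate 20 min at room temperature; quench at pH 10; measure fluorescence at 365/440 nm.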

[31] = biological target: alpha-glucosidase (Oryza sativa, rice) (UniProt Q653V4); test: Counterscreen for Glucocerebrosidase Inhibitors: qHTS Assay for Rice alpha-Glucosidase at pH 5.0 (AID 997); details: rice alpha-glucosidase enzyme activity; at 76.9 µM (top of the series);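 also: 0% = full activity with enzyme and -100% = basal without enzyme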
Method in brief: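 Endpoint fluorogenic assay at pH 5.0: compounds (0.7 nM to 77 uM) titrated against 4 nM rice enzyme and 400 uM 4-MU-alpha-glucoside for 20 min at room temperature; NaOH/glycine stop, read ex 365/em 440 nm, Hill-fitted AC50.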

[N-]=[N+]=NCC(O)CN=[N+]=[N-] (stereo not given)
inactive: activity change, negative = inhibition [1] 7.83% | activation (PDE inhibition) [2] 0.863%

O=C(O)[C@@H](O)c1ccc([As](=O)(O)O)cc1
inactive: activity change, negative = inhibition [1] 8.19% | activation (PDE inhibition) [2] -8.23%

O=[N+]([O-])c1ccc([N+](=O)[O-])cc1
inactive: activity, negative = inhibition [3] 6.48% | activity change, negative = inhibition [4] -2.89% | activation [5] -0.378% | activation [6] -11.1% | activity change, negative = inhibition [7] -10.1% | activation [8] 1.82% | activity change, negative = inhibition [9] -14.5% | activation [10] -9.4% | activity, negative = inhibition [11] -15.4% | activity change, negative = inhibition [12] -2.11% | activation [13] -6.96% | max response [14] -8.68% | inhibition [15] -16.9% | activation [16] 1.07% | activation [17] -0.599% | activation [18] 8.35% | max response [19] -0.739% | activation [20] 0.989% | max response [21] -8.14% | max response [22] -6.19% | Potency [23] | max response [24] 4.36% | activation [25] -6.74%

CN(C(=O)Cc1ccccc1)[C@@H]1CC[C@@]2(CCCO2)C[C@H]1N1CCCC1
inactive: activity change, negative = inhibition [1] -16.3% [at 38 µM] | activation (PDE inhibition) [2] 0.694% | activity, negative = inhibition [26] -11.2% | activity, positive = activation [27] -10.7% | Potency [28] | activity change, negative = inhibition [29] -14.5% | activity change, negative = inhibition [30] -0.133% | activity change, negative = inhibition [31] -1.03%
